{"source": "patent US20070117773A1", "about": "“Telomerase-inhibiting ENA oligonucleotide” (SANKYO COMPANY, LIMITED, priority 2004, published 2007)", "details": "20 mM sodium acetate aqueous solution (pH 5.0), 37° C., after about 100 hours, ion exchange HPLC"}
{"substance": "HO-T^e2s-A^e2s-G^e2s-G^e2s-G^e2s-T^e2s-T^e2s-A^e2s-G^e2s-C^e2s-A^e2s-A^e2s-CH2CH2OH [Example 1]", "values": [{"measurement": "hydrolysis", "result": "no hydrolysis"}]}
